# Data: ChEMBL document CHEMBL4152231, “Identification of novel 2-benzyl-1-indanone analogs as interleukin-5 inhibitors” (Eur J Med Chem, 2018)
# Molecular target: T1, Interleukin-5 (Mus musculus) (UniProt P04401)
# T1 sequence (whole entry): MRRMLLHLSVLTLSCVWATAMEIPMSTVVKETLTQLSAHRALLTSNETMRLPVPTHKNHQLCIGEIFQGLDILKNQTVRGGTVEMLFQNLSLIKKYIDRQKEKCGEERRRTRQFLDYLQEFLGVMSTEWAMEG
# Details: 50 uM
structure (smiles),measurement,value
CCCC1O[C@H]2C[C@H]3[C@@H]4CCC5=CC(=O)C=C[C@]5(C)[C@H]4[C@@H](O)C[C@]3(C)[C@]2(C(=O)CO)O1 (stereo partly specified),inhibition,70.2%
